Values of other authors, collected in patent US9182414B2, “Methods for identifying a GLP-1 secretagogue” (Arena Pharmaceuticals, Inc., priority 2005, dated 2015).

Biological target: T1, BRS-3 (Homo sapiens, UniProt P32247)
T1 sequence (P32247 1-399): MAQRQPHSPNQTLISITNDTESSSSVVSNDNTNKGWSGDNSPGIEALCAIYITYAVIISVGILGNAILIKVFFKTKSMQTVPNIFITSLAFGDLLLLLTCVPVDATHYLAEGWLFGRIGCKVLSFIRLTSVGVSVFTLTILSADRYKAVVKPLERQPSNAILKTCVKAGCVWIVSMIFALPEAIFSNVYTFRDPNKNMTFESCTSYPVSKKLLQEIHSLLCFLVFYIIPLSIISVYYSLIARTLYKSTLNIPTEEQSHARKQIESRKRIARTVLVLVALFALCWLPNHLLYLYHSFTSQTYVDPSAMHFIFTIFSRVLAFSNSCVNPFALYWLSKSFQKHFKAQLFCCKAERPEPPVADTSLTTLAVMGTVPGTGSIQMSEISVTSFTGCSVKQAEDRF
Details: BRS-3 over GRP-R and NMB-R; description taken from literature

Substance | selectivity as BRS-3 agonist
[D-Tyr^6,(S)-Apa^11,Phe^13,Nle^14]Bombesin(6-14) [Compound 29] | selective BRS-3 agonists
[D-Tyr^6,(R)-Apa^11,Phe^13,Nle^14]Bombesin(6-14) [Compound 28] | selective BRS-3 agonists
[D-Tyr^6,(R)-Apa^11-4Cl,Phe^13,Nle^14]Bombesin(6-14) [Compound 30] | selective BRS-3 agonists
